Assays:
[1] = system: human red blood cells (RBC); type: cell-based; conditions: hemolytic assay, concentration at 50% hemolysis, 1 hour at 37° C.
Procedure: This hemolytic assay is based upon that presented in Journal of Peptide Research 53: 82-90 (1999). […] All procedures were performed according to safety protocols pertaining to the handling and disposal of human body fluids.
Red blood cells (RBCs) were washed three times with PBS (35 mM phosphate buffer 0.15 M NaCl, pH 7.0). RBCs suspended in PBS (0.4% (v/v); about 10 ml per 15 peptides) were prepared. Suspensions (100 μl) were aliquoted to each sample and control tube. Serially diluted peptide solutions (100 μl) were pipetted into the sample tubes. Negative control tubes contained 100 μl PBS; positive control tubes contained 100 μl 1% Triton-X100 detergent. All tubes were incubated for 1 hour at 37° C. The tubes were removed from the incubator and centrifuged at 1000 g for 5 minutes. Supernatant (100 μl) was pipetted to a 96-well polyvinyl chloride plate. The absorbance at 414 nm (A414) was measured, and used to calculate the percent hemolysis according to the following formula. [formula]

WI38 = conditions: MTT, 24 hours with peptide; for WI38 LD50: normal fibroblast line; for LD50 WI38: WI38 normal lung fibroblast line

Row | Substance | LD50 [1] [µg/mL] | WI38 LD50 (WI38) [µg/mL] | LD50 WI38 (WI38) [µg/mL]
1 | VAKKLAKLAKKLAKLAL-NH2 [P50] | 420 | 43 | 43
2 | GIGKFLKKAKKFGKAFVKILKK-NH2 [P42, reference compound] | 300 | 67 | 67
3 | ILPWKWPWWPWRR-COOH [P91, reference compound] | 40 | 9 | 9
4 | FAKALKALLKALKAL-NH2 [P64] | 6 | 37 | 37

— patent US20050209157A1, “Short bioactive peptides and methods for their use” (priority 2001, published 2005)
